Reference: patent US20230066286A1, “DEUTERATED TRYPTAMINE DERIVATIVES AND METHODS OF USE” (priority 2020, published 2023)

Chains of the proteins cited; added tags and fusions are not shown.
UniProt P41595, whole entry: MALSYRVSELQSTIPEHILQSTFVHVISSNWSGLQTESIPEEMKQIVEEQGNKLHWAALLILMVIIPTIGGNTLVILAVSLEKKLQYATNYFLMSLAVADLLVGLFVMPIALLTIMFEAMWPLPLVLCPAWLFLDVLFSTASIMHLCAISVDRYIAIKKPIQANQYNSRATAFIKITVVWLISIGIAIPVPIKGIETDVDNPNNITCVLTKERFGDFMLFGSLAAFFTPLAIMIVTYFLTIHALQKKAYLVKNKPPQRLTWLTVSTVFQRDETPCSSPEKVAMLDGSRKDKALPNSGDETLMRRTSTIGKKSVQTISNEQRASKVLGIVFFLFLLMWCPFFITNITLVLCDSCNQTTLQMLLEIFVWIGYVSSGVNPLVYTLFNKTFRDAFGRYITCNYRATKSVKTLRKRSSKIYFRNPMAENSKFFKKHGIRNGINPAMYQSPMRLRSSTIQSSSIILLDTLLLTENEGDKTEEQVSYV

What was measured:
5-HT2B [1] = target: T1, 5-HT2B (Homo sapiens, UniProt P41595); test: Receptor affinity assay, radioligand competition binding
T1 construct: expressed in transfected cells; host or cells: CHO-K1 or HEK293
Method: Receptor Affinity Assays: 5-HT1A, 5-HT2(A,B,C) receptor affinities were determined by radioligand competition binding. Membranes from CHO-K1 or HEK293 cells expressing serotonergic receptors were collected and incubated in assay buffer with Kd concentrations of radioligands and tests compounds that compete for receptor binding sites. After equilibration, the reaction was terminated by collecting ligand-receptor-membrane complexes (Microbeta, PerkinElmer), and radioactivity was measured by a scintillation counter (Microbeta2, PerkinElmer). Data were fit to non-linear curves, and Ki values were calculated per the Cheng-Prusoff equation.

5-HT2B [2] = target: T1, 5-HT2B; test: Receptor function assay, Gq stimulation (IP1 production); assay type: cell-based
Method: Receptor Function Assays: 5-HT1A receptor-mediated Gi stimulation (reduction in cyclic adenosine monophosphate (cAMP) levels) and 5-HT2(A,B,C) receptor-mediated Gq stimulation (phosphoinositide hydrolysis leading to the production of inositol phosphate 1 (IP1))-canonical signaling pathways—were measured as previously described (Canal et al., 2013), for example, with a homogeneous time-resolved fluorescence (HTRF) capable microplate reader (e.g., Mithras LB 940, Berthold) using commercially-available kits employing Fluorescence Resonance Energy Transfer (FRET) technology (e.g., LANCE Ultra cAMP TR-FRET (PerkinElmer) and IP-One HTRF (Cisbio) kits). Briefly, CHO-K1 or HEK293 cells expressing serotonergic receptors were incubated with test compounds in stimulation buffer. After equilibration, the reaction was terminated with the donor and acceptor fluorescent conjugates in lysis buffer, and FRET was measured. Data were fit to non-linear curves to calculate potencies (e.g., EC50) and efficacies (e.g., EMAX), relative to positive controls (e.g., serotonin).

Work on `[2H]C([2H])(Cc1c[nH]c2cccc(O)c12)N(C)C` [PI-α,α-d2] yielded a Ki (5-HT2B [1]) of 6 nM and an EC50 (5-HT2B [2]) of over 20000 nM.
